# Laboratory results taken from patent US20090042865A1, “DNA-PK INHIBITORS” (priority 2007, published 2009).
# The chains behind the UniProt entries cited, without tags or fusion partners.
# UniProt P78527, whole entry: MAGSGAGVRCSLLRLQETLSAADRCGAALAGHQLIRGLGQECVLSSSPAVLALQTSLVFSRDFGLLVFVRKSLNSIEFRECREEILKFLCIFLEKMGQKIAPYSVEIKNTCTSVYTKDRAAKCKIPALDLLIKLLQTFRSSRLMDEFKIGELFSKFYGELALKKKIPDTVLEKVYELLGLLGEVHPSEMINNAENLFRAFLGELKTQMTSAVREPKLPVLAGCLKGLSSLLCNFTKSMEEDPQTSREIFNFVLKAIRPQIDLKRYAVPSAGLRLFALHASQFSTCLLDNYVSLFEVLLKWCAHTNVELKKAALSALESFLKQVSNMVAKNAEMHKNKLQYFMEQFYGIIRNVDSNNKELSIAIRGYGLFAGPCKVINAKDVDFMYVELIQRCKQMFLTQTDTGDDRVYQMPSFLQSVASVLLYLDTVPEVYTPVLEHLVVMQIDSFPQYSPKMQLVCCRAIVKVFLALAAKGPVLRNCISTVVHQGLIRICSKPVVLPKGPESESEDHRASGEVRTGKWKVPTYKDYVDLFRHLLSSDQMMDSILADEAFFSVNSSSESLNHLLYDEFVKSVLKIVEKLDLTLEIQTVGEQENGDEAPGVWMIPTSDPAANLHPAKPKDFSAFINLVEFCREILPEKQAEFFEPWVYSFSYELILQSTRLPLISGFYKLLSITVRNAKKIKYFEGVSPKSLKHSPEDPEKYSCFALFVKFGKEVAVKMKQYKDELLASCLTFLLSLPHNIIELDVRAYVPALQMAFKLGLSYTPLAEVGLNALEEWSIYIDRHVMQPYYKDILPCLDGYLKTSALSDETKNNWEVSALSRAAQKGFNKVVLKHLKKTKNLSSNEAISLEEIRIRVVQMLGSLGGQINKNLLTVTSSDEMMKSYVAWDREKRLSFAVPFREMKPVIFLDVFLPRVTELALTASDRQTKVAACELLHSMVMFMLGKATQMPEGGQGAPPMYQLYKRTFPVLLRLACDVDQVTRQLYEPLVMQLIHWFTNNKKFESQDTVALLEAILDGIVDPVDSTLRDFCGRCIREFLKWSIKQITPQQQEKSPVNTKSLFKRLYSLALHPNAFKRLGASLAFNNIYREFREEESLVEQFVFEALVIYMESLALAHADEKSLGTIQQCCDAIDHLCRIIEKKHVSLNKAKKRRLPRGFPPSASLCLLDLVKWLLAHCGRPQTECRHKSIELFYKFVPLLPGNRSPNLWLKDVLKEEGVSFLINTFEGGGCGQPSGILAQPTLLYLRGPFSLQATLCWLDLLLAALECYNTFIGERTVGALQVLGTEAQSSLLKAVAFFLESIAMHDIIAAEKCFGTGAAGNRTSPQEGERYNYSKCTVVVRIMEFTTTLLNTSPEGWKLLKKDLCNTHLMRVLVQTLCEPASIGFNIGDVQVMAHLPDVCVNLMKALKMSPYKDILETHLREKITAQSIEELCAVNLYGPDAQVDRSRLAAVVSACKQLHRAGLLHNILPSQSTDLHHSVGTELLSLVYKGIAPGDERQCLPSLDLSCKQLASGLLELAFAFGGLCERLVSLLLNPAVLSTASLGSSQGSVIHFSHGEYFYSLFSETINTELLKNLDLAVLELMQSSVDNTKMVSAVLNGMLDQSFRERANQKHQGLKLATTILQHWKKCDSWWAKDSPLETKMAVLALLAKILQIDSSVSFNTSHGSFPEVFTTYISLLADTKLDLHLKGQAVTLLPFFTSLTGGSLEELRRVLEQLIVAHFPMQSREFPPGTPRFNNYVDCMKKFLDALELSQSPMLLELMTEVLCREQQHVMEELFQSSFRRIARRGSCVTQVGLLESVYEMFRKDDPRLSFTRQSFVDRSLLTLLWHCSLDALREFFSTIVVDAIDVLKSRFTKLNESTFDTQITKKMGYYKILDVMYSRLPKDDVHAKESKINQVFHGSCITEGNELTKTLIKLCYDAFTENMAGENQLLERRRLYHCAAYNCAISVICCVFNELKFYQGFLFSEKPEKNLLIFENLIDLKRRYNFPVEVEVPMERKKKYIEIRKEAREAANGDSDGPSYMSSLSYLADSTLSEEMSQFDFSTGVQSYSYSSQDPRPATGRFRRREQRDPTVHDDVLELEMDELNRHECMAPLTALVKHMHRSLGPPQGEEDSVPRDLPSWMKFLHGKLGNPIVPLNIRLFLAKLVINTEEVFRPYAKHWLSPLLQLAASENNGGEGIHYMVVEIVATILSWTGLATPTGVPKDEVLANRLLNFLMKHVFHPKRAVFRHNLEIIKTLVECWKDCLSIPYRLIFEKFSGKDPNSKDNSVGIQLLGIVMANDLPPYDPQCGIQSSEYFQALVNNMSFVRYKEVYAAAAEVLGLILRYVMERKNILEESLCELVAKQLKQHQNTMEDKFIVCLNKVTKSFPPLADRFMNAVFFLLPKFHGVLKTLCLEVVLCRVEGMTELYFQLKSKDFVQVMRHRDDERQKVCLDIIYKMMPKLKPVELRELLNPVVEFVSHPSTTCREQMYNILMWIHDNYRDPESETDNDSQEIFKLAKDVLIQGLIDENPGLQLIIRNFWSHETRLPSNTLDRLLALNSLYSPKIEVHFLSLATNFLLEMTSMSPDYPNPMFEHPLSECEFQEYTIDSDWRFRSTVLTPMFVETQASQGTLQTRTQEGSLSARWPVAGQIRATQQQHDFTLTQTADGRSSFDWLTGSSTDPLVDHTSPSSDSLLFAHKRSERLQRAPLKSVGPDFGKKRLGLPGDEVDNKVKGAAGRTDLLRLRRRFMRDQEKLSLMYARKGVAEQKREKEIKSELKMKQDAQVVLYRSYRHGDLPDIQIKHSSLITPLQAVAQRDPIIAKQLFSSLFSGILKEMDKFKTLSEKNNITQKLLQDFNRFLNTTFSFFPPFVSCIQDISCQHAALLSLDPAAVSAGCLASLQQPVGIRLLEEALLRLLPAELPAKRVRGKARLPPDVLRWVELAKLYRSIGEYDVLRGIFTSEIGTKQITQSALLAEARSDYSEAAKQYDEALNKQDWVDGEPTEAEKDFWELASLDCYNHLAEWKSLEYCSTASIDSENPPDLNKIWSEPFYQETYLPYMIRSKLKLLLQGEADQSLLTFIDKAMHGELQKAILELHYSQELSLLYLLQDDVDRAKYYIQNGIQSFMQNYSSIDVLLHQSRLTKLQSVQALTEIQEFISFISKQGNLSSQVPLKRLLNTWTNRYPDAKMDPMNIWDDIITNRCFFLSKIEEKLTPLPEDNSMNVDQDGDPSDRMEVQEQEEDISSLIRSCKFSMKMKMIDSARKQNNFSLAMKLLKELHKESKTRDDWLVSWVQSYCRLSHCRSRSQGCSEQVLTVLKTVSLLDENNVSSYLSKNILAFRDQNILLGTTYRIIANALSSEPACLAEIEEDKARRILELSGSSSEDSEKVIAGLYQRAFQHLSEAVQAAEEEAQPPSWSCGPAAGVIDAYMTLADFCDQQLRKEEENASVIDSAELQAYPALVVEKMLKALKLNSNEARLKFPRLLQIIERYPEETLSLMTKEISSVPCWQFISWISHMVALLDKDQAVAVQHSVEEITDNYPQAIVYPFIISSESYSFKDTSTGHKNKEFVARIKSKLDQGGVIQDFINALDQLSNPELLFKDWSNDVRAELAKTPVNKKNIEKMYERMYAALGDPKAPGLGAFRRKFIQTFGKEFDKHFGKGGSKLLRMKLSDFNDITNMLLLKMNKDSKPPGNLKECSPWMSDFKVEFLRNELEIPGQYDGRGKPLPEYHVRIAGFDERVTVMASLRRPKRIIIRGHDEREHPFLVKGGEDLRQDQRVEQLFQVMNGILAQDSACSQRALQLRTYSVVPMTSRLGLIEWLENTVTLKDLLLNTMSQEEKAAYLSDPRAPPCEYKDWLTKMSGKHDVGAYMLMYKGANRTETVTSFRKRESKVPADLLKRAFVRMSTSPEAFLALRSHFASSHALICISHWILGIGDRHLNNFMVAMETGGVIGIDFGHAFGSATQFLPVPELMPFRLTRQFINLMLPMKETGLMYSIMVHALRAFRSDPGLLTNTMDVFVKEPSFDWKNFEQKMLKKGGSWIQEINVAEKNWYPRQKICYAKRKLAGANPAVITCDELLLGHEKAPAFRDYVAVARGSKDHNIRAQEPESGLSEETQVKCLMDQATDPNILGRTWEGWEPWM
# UniProt P13010, whole entry partner: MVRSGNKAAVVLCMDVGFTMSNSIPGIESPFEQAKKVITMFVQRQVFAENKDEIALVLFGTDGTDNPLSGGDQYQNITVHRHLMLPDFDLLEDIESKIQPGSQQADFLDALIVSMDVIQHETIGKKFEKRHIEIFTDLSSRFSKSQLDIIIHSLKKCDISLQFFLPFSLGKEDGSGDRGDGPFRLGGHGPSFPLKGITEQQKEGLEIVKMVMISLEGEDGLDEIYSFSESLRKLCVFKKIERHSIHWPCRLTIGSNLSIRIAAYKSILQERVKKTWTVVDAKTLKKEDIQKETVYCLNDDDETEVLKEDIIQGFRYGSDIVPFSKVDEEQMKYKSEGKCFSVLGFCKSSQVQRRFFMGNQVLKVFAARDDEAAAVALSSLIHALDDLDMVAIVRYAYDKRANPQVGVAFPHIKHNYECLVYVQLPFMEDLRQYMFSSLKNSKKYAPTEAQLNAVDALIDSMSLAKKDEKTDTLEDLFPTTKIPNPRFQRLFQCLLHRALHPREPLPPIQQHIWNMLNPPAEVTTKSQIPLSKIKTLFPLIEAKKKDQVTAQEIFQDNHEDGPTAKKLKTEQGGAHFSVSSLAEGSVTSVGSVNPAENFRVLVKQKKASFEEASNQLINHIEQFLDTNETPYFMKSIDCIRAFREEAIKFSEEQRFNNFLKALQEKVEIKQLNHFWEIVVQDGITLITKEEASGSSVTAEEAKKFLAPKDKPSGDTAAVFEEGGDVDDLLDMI
# UniProt P12956, whole entry partner: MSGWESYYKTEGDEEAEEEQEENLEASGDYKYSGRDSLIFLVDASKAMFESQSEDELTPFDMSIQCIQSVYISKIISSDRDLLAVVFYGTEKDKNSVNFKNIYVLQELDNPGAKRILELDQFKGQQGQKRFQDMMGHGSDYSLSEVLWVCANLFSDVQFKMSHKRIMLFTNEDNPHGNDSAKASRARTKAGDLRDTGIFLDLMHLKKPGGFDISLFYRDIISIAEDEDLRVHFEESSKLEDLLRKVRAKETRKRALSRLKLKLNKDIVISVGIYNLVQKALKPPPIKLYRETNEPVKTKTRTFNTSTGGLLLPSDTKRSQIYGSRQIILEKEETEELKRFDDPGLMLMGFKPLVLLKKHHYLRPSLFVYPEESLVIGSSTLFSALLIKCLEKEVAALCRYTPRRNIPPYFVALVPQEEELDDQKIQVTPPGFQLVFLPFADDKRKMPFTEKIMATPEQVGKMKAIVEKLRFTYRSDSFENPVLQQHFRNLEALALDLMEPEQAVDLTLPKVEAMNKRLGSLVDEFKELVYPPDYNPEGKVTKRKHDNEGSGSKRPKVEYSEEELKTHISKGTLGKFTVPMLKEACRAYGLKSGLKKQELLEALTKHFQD
# Molecular target: DNA-PK (Homo sapiens, UniProt P78527)
# Experiment: DNA-PK inhibition assay (ELISA, phosphorylation of GST-p53N66)
# Conditions: read-out: IC50 (mean IC50 of the compounds), DNA-PK from HeLa nuclear extract, 50 μM ATP
row,SMILES,IC50 [nM]
1,N#CCN1CCN(c2ccc(-c3cccc4c(=O)cc(N5CCOCC5)oc34)c3sc4ccccc4c23)CC1,20
2,CC(C)(C)C(=O)ONCCN1CCN(c2ccc(-c3cccc4c(=O)cc(N5CCOCC5)oc34)c3sc4ccccc4c23)CC1,11
